Assay results from PubChem BioAssay (NCI).
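48-hour exposure; five concentrations; linearly interpolated endpoints. The concentration for 50% growth inhibition is given as GI50. TGI marks complete inhibition of growth.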

Legend:
Assay in all cases: NCI anticancer screen, dose series, 48 h
786-0 renal = system: 786-0 renal
A498 renal = system: A498 renal
A549 NSCLC = system: A549 NSCLC
ACHN renal = system: ACHN renal
BT-549 breast = system: BT-549 breast
CAKI-1 renal = system: CAKI-1 renal
CCRF-CEM leukemia = system: CCRF-CEM leukemia
COLO 205 colon = system: COLO 205 colon
DU-145 prostate = system: DU-145 prostate
EKVX NSCLC = system: EKVX NSCLC
HCT-116 colon = system: HCT-116 colon
HCT-15 colon = system: HCT-15 colon
HL-60(TB) leukemia = system: HL-60(TB) leukemia
HOP-62 NSCLC = system: HOP-62 NSCLC
HOP-92 NSCLC = system: HOP-92 NSCLC
HS 578T breast = system: HS 578T breast
HT29 colon = system: HT29 colon
IGROV1 ovarian = system: IGROV1 ovarian
K-562 leukemia = system: K-562 leukemia
KM12 colon = system: KM12 colon
LOX IMVI melanoma = system: LOX IMVI melanoma
M14 melanoma = system: M14 melanoma
MALME-3M melanoma = system: MALME-3M melanoma
MCF7 breast = system: MCF7 breast
MDA-MB-231 breast = system: MDA-MB-231 breast
MDA-MB-435 = system: MDA-MB-435
MDA-N = system: MDA-N
MOLT-4 leukemia = system: MOLT-4 leukemia
NCI-H226 lung = system: NCI-H226 lung
NCI-H23 lung = system: NCI-H23 lung
NCI-H322M lung = system: NCI-H322M lung
NCI-H460 lung = system: NCI-H460 lung
NCI-H522 lung = system: NCI-H522 lung
NCI/ADR-RES ovarian = system: NCI/ADR-RES ovarian
OVCAR-3 ovarian = system: OVCAR-3 ovarian
OVCAR-4 ovarian = system: OVCAR-4 ovarian
OVCAR-5 ovarian = system: OVCAR-5 ovarian
OVCAR-8 ovarian = system: OVCAR-8 ovarian
PC-3 prostate = system: PC-3 prostate
RPMI-8226 leukemia = system: RPMI-8226 leukemia
RXF 393 renal = system: RXF 393 renal
SF-268 CNS = system: SF-268 CNS
SF-295 CNS = system: SF-295 CNS
SF-539 CNS = system: SF-539 CNS
SK-MEL-2 melanoma = system: SK-MEL-2 melanoma
SK-MEL-28 melanoma = system: SK-MEL-28 melanoma
SK-MEL-5 melanoma = system: SK-MEL-5 melanoma
SK-OV-3 ovarian = system: SK-OV-3 ovarian
SN12C renal = system: SN12C renal
SNB-19 CNS = system: SNB-19 CNS
SNB-75 CNS = system: SNB-75 CNS
SR leukemia = system: SR leukemia
SW-620 colon = system: SW-620 colon
T-47D breast = system: T-47D breast
TK-10 renal = system: TK-10 renal
U251 CNS = system: U251 CNS
UACC-257 melanoma = system: UACC-257 melanoma
UACC-62 melanoma = system: UACC-62 melanoma
UO-31 renal = system: UO-31 renal

[N-]=[N+]=NCC(N)=O was tested, and the GI50 (786-0 renal) was greater than 100 µM, the TGI (786-0 renal) was greater than 100 µM and the GI50 (A498 renal) was greater than 100 µM. For the same compound, the TGI (A498 renal) was greater than 100 µM, the GI50 (A549 NSCLC) was greater than 100 µM and the TGI (A549 NSCLC) was greater than 100 µM. The GI50 (ACHN renal) was greater than 100 µM, the TGI (ACHN renal) was greater than 100 µM and the GI50 (BT-549 breast) was greater than 100 µM. It also gave a TGI (BT-549 breast) greater than 100 µM, a GI50 (CAKI-1 renal) greater than 100 µM and a TGI (CAKI-1 renal) greater than 100 µM. The GI50 (CCRF-CEM leukemia) was greater than 100 µM, the TGI (CCRF-CEM leukemia) was greater than 100 µM and the GI50 (COLO 205 colon) was greater than 100 µM. For the same compound, the TGI (COLO 205 colon) was greater than 100 µM, the GI50 (DU-145 prostate) was greater than 100 µM and the TGI (DU-145 prostate) was greater than 100 µM. For the same compound, the GI50 (EKVX NSCLC) was greater than 100 µM, the TGI (EKVX NSCLC) was greater than 100 µM and the GI50 (HCT-116 colon) was greater than 100 µM. For the same compound, the TGI (HCT-116 colon) was greater than 100 µM, the GI50 (HCT-15 colon) was greater than 100 µM and the TGI (HCT-15 colon) was greater than 100 µM. For the same compound, the GI50 (HL-60(TB) leukemia) was greater than 100 µM, the TGI (HL-60(TB) leukemia) was greater than 100 µM and the GI50 (HOP-62 NSCLC) was greater than 100 µM. The TGI (HOP-62 NSCLC) was greater than 100 µM, the GI50 (HOP-92 NSCLC) was greater than 100 µM and the TGI (HOP-92 NSCLC) was greater than 100 µM. For the same compound, the GI50 (HS 578T breast) was greater than 100 µM, the TGI (HS 578T breast) was greater than 100 µM and the GI50 (HT29 colon) was greater than 100 µM. For the same compound, the TGI (HT29 colon) was greater than 100 µM, the GI50 (IGROV1 ovarian) was greater than 100 µM and the TGI (IGROV1 ovarian) was greater than 100 µM. For the same compound, the GI50 (K-562 leukemia) was greater than 100 µM, the TGI (K-562 leukemia) was greater than 100 µM and the GI50 (KM12 colon) was greater than 100 µM. The TGI (KM12 colon) was greater than 100 µM, the GI50 (LOX IMVI melanoma) was greater than 100 µM and the TGI (LOX IMVI melanoma) was greater than 100 µM. For the same compound, the GI50 (M14 melanoma) was greater than 100 µM, the TGI (M14 melanoma) was greater than 100 µM and the GI50 (MALME-3M melanoma) was greater than 100 µM. It also gave a TGI (MALME-3M melanoma) greater than 100 µM, a GI50 (MCF7 breast) greater than 100 µM and a TGI (MCF7 breast) greater than 100 µM. For the same compound, the GI50 (MDA-MB-231 breast) was greater than 100 µM, the TGI (MDA-MB-231 breast) was greater than 100 µM and the GI50 (MDA-MB-435) was greater than 100 µM. It also gave a TGI (MDA-MB-435) greater than 100 µM, a GI50 (MDA-N) greater than 100 µM and a TGI (MDA-N) greater than 100 µM. It also gave a GI50 (MOLT-4 leukemia) greater than 100 µM, a TGI (MOLT-4 leukemia) greater than 100 µM and a GI50 (NCI-H226 lung) greater than 100 µM. The TGI (NCI-H226 lung) was greater than 100 µM, the GI50 (NCI-H23 lung) was greater than 100 µM and the TGI (NCI-H23 lung) was greater than 100 µM. The GI50 (NCI-H322M lung) was greater than 100 µM, the TGI (NCI-H322M lung) was greater than 100 µM and the GI50 (NCI-H460 lung) was greater than 100 µM. The TGI (NCI-H460 lung) was greater than 100 µM, the GI50 (NCI-H522 lung) was greater than 100 µM and the TGI (NCI-H522 lung) was greater than 100 µM. For the same compound, the GI50 (NCI/ADR-RES ovarian) was greater than 100 µM, the TGI (NCI/ADR-RES ovarian) was greater than 100 µM and the GI50 (OVCAR-3 ovarian) was greater than 100 µM. The TGI (OVCAR-3 ovarian) was greater than 100 µM, the GI50 (OVCAR-4 ovarian) was greater than 100 µM and the TGI (OVCAR-4 ovarian) was greater than 100 µM. It also gave a GI50 (OVCAR-5 ovarian) greater than 100 µM, a TGI (OVCAR-5 ovarian) greater than 100 µM and a GI50 (OVCAR-8 ovarian) greater than 100 µM. It also gave a TGI (OVCAR-8 ovarian) greater than 100 µM, a GI50 (PC-3 prostate) greater than 100 µM and a TGI (PC-3 prostate) greater than 100 µM. For the same compound, the GI50 (RPMI-8226 leukemia) was greater than 100 µM, the TGI (RPMI-8226 leukemia) was greater than 100 µM and the GI50 (RXF 393 renal) was greater than 100 µM. It also gave a TGI (RXF 393 renal) greater than 100 µM, a GI50 (SF-268 CNS) greater than 100 µM and a TGI (SF-268 CNS) greater than 100 µM. The GI50 (SF-295 CNS) was greater than 100 µM, the TGI (SF-295 CNS) was greater than 100 µM and the GI50 (SF-539 CNS) was greater than 100 µM. It also gave a TGI (SF-539 CNS) greater than 100 µM, a GI50 (SK-MEL-2 melanoma) greater than 100 µM and a TGI (SK-MEL-2 melanoma) greater than 100 µM. It also gave a GI50 (SK-MEL-28 melanoma) greater than 100 µM, a TGI (SK-MEL-28 melanoma) greater than 100 µM and a GI50 (SK-MEL-5 melanoma) greater than 100 µM. For the same compound, the TGI (SK-MEL-5 melanoma) was greater than 100 µM, the GI50 (SK-OV-3 ovarian) was greater than 100 µM and the TGI (SK-OV-3 ovarian) was greater than 100 µM. It also gave a GI50 (SN12C renal) greater than 100 µM, a TGI (SN12C renal) greater than 100 µM and a GI50 (SNB-19 CNS) greater than 100 µM. The TGI (SNB-19 CNS) was greater than 100 µM, the GI50 (SNB-75 CNS) was greater than 100 µM and the TGI (SNB-75 CNS) was greater than 100 µM. For the same compound, the GI50 (SR leukemia) was greater than 100 µM, the TGI (SR leukemia) was greater than 100 µM and the GI50 (SW-620 colon) was greater than 100 µM. For the same compound, the TGI (SW-620 colon) was greater than 100 µM, the GI50 (T-47D breast) was greater than 100 µM and the TGI (T-47D breast) was greater than 100 µM. The GI50 (TK-10 renal) was greater than 100 µM, the TGI (TK-10 renal) was greater than 100 µM and the GI50 (U251 CNS) was greater than 100 µM. It also gave a TGI (U251 CNS) greater than 100 µM, a GI50 (UACC-257 melanoma) greater than 100 µM and a TGI (UACC-257 melanoma) greater than 100 µM. For the same compound, the GI50 (UACC-62 melanoma) was greater than 100 µM, the TGI (UACC-62 melanoma) was greater than 100 µM and the GI50 (UO-31 renal) was greater than 100 µM. For the same compound, the TGI (UO-31 renal) was greater than 100 µM.
